{"source": "patent US20040209956A1", "about": "“S-[2-[(1-Iminoethyl)amino]ethyl]-2-methyl-L-cysteine maleate form II crystalline salt” (priority 2003, published 2004)", "test": "Solubility experiments in acetonitrile/water with and without excess maleic acid", "assay_type": "physicochemical", "experimental": "Attempts were made to study the solubility of S-[2-[(1-Iminoethyl)amino]ethyl]-2-methyl-L-cysteine maleate Form II crystalline salt at 5° C. in 70/30 v/v acetonitrile/water with and without excess (1 molar equivalent) maleic acid and in 90/10 v/v acetonitrile/water with one molar equivalent excess maleic acid All three experimental vials were prepared by adding approximately 90 mg of S-[2-[(1-Iminoethyl)amino]ethyl]-2-methyl-L-cysteine maleate crystalline salt and 30 mg of maleic acid to approximately 300 mg of binary solvent. These vials were then placed in a shaker bath at 5° C. After four days of equilibration when the vials were observed, it was discovered that the system had turned from a suspension of solids in a single liquid phase to a biphasic liquid with no suspended solids. Both layers from each of the three vials were analyzed for water content (through Karl-Fischer analysis) and concentration of the compound. […] It is worth pointing out though that the exact conditions leading to measured concentrations in the top layer could only be truly established when the partitioning of excess maleic acid is established between the two layers. The bottom layer (rich in water) would most likely be under-saturated since no excess solids remained. This possibility is substantiated by the solubility data on the bottom layer, where the concentrations are found to be very similar across all the experiments. While the vial at 70/30 acetonitrile/water with excess maleic acid remained biphasic even after nineteen days, the 70/30 acetonitrile/water vial without any excess maleic acid after five days had some very large crystals floating in a solution that still seemed biphasic. […] These crystals were used to obtain crystallography data. After nineteen days of equilibration at 5° C., the 90/10 acetonitrile/water vial with excess maleic acid had turned back into a slurry of solids in a single liquid phase. […] The fact that 70/30 vial with excess maleic acid remained biphasic and more importantly without any re-crystallized solids could be because of the higher solubility resulting from excess maleic acid (compared to 70/30 vial without excess malice acid) and higher water content (compared to the 90/10 vial with excess maleic acid). Equally interesting to note is that the two vials where crystallization did occur from biphasic solvent systems had form II crystals in them at the time of isolation.", "note": "Where two headings read alike, the source gives them in different places.", "data": [{"substance": "S-[2-[(1-Iminoethyl)amino]ethyl]-2-methyl-L-cysteine maleate crystalline salt Form II", "values": [{"measurement": "Concentration", "result": 1.02, "unit": "Wt %"}, {"measurement": "Concentration", "setting": "70/30 ACN/Water (1x excess maleic acid), Bottom Layer (rich in water, most likely under-saturated), 5° C., four days", "result": 5.40, "unit": "Wt %"}, {"measurement": "Concentration", "setting": "70/30 ACN/Water (1x excess maleic acid), Top Layer (acetonitrile rich) of biphasic liquid, 5° C., four days", "result": 2.71, "unit": "Wt %"}, {"measurement": "Concentration", "setting": "70/30 ACN/Water (no excess maleic acid), Bottom Layer (rich in water, most likely under-saturated), 5° C., four days", "result": 6.68, "unit": "Wt %"}, {"measurement": "Concentration", "setting": "90/10 ACN/Water (1x excess maleic acid), Bottom Layer (rich in water, most likely under-saturated), 5° C., four days", "result": 5.28, "unit": "Wt %"}, {"measurement": "Concentration", "setting": "90/10 ACN/Water (1x excess maleic acid), Top Layer (acetonitrile rich) of biphasic liquid, 5° C., four days", "result": 2.67, "unit": "Wt %"}]}]}
